The values that follow come from PMC8782398.

Usually pKi stands for −log10 of the Ki, conventionally taken in molar units.

The experiment concerns the target human KOP receptor in CHO cells (human), P41145. As to the kind of experiment: radioligand binding.

Take YGGFLRRIRPKLKWDNQ (modifications not checked) [Dynorphin-A]: the negative-log Ki (pKi) was 10.2.
